# Measured values reported in US20090275634A1 (priority 2006, published 2009).
# Legend:
# TNBS-induced colitis = TNBS-induced colitis in mice, oral daily treatment; macroscopic disease score (Wallace criteria) and colon histology; type: in vivo, BALB/C mice
# [1] = test system: peritoneal macrophages from TLR9 KO mice; experiment: Number of total and MAC-1 positive peritoneal macrophages by FACS, TLR9 KO mice; type: cell-based; conditions: after treatment
# [2] = test system: peritoneal macrophages derived from MyD88 KO mice; experiment: Number of MAC-1 positive peritoneal macrophages by FACS, MyD88 KO mice; type: cell-based, MyD88 KO mice (C57BL6 background); conditions: 72 hr
# [3] = test system: peritoneal macrophages derived from MyD88 KO mice; experiment: MIP-2 secretion from peritoneal macrophages by ELISA, MyD88 KO mice; type: cell-based, MyD88 KO mice (C57BL6 background)
# peritoneal macrophages [4] = experiment: Number of total and activated (MAC-1) peritoneal macrophages by FACS, wild type mice; type: cell-based, C57BL6 mice
# peritoneal macrophages [5] = experiment: Cytokine/chemokine secretion from peritoneal macrophages by ELISA, wild type mice; type: cell-based, C57BL6 mice; conditions: for level of IL-6 in the supernatants of activated PMs / level of MIP-2 in the supernatants of activated PMs / level of TNF-α in the supernatants of activated PMs: LPS 0.1 μg/ml, CpG and CpG control 1 and 10 μg/ml (Example 4)
Substance,"protection from colitis symptoms (disease score, FIG. 3) (TNBS-induced colitis; 100 μg/Kg oral daily beginning one day before colitis induction and for the subsequent seven days)","protection from colitis symptoms (disease score, FIG. 3) (TNBS-induced colitis; higher doses, 200 or 500 μg/Kg, oral daily beginning one day before colitis induction)","protection from colitis disease manifestation (disease score, FIG. 2) (TNBS-induced colitis; oral daily beginning one day before colitis induction and for the next seven days, low doses, 10 to 100 μg/Kg)","efficacy to alleviate colitis symptoms (disease score, FIG. 1) (TNBS-induced colitis; oral once daily, 25 or 50 μg/Kg, beginning one day or two days after colitis induction, sacrifice 7 days after TNBS)",number of total and MAC-1 positive cells [1],number of MAC-1 positive cells [2],effect on MIP-2 levels in the supernatants of PMs [3],"number of MAC-1 positive cells (peritoneal macrophages [4]; WT mice (C57BL6), Example 5, 72 hr)","number of total cells or MAC-1 positive cells (peritoneal macrophages [4]; naïve WT (C57BL6) mice, TLR9 experiment, 72 hrs, CpG 1 or 5 μg/ml)",level of IL-6 in the supernatants of activated PMs (peritoneal macrophages [5]),level of MIP-2 in the supernatants of activated PMs (peritoneal macrophages [5]),level of TNF-α in the supernatants of activated PMs (peritoneal macrophages [5]),"levels of MIP-2 in the supernatants of PMs (peritoneal macrophages [5]; WT mice (C57BL6), Example 5, MyD88 experiment)","levels of MIP-2 in the supernatants of PM (peritoneal macrophages [5]; control naïve C57BL6 mice, TLR9 experiment, CpG 1, 5 μg/ml, 24 or 72 hours)","number of total and activated peritoneal macrophages (peritoneal macrophages [4]; 72 hr, LPS 0.1 μg/ml, CpG and non-CpG control 1 and 10 μg/ml (Example 4))"
5′-CTGCCACGTTCTCCTGCA*C*C*-3′,protected moderately,less effective,protected the animals from the disease manifestation,prominent and comparable to that of Dexamethasone,–,–,–,–,–,–,–,–,–,–,–
TCCATGACGTTCCTGACGTT,–,–,–,–,reduced significantly,reduced significantly,almost totally inhibited,increased,increased,strongly elevated,strongly elevated,strongly elevated,elevated,strongly elevated,–
TCCATGAGCTTCCTGAGCTT,–,–,–,–,–,–,–,–,–,to a lower degree,to a lower degree,to a lower degree,–,–,increased
